# Patent US6472373B1, “Combination therapy for eradicating detectable HCV-RNA in antiviral treatment naive patients having chronic hepatitis C infection” (priority 1997, dated 2002)
# Experiments:
# Format in all cases: in vivo, patients
# serum HCV-RNA [1] = test: Study 2: virologic response by serum HCV-RNA/qPCR; settings: first no-detectable HCV-RNA at Week 24, 48 weeks treatment
# serum HCV-RNA [2] = test: Study 1: virologic response by serum HCV-RNA/qPCR
# [3] = tested on: chronic hepatitis C (serum ALT); test: ALT response: normalization of serum ALT, Studies 1 & 2
# Text: […] proportion of patients with normalization of ALT at Endpoint of treatment.
# chronic hepatitis C = test: Study 2: overall response (sustained HCV-RNA loss plus Knodell HAI improvement); settings: 48 weeks treatment
# [4] = Study 1, all treated, 24 weeks treatment
# [5] = Study 1, all treated, 48 weeks treatment
substance,measurement,setting,value
"INTRON A + Placebo: INTRON A (interferon alpha-2b, recombinant) 3 million IU SC TIW plus placebo matching ribavirin; interferon monotherapy comparator",Percent of Sustained Virologic Responders by Time to First No Detectable HCV-RNA Levels,serum HCV-RNA [1],10% (2/21)
same,Sustained Response,"serum HCV-RNA [2]; Study 1, Genotype 1, >2 million copies/ml, 48 weeks treatment",3% (3/119)
same,Sustained Response,"serum HCV-RNA [2]; Study 1, Genotype 1, ≦2 million copies/ml, 24 weeks treatment",4% (2/54)
same,Sustained Response,"serum HCV-RNA [2]; Study 1, Genotype 1, ≦2 million copies/ml, 48 weeks treatment",19 % (8/43)
same,Sustained Virologic Response Rates by HCV Genotype,"serum HCV-RNA [2]; Study 1, Genotype 2, 24 weeks treatment",18% (7/38)
same,Sustained Virologic Response Rates by HCV Genotype,"serum HCV-RNA [2]; Study 1, Genotype 2, 48 weeks treatment",35% (15/43
same,Sustained Virologic Response Rates by HCV Genotype,"serum HCV-RNA [2]; Study 1, Genotype 3, 24 weeks treatment",8% (2/24)
same,Sustained Virologic Response Rates by HCV Genotype,"serum HCV-RNA [2]; Study 1, Genotype 3, 48 weeks treatment",16% (3/19)
same,Sustained Virologic Response Rates by HCV Genotype,"serum HCV-RNA [2]; Study 1, Genotype 4-6, 24 weeks treatment",0%
same,Sustained Virologic Response Rates by HCV Genotype,"serum HCV-RNA [2]; Study 1, Genotype 4-6, 48 weeks treatment",0%
same,Sustained Response,"serum HCV-RNA [2]; Study 1, Other Genotypes, >2 million copies/ml, 24 weeks treatment",11% (5/44)
same,Sustained Response,"serum HCV-RNA [2]; Study 1, Other Genotypes, >2 million copies/ml, 48 weeks treatment",19% (8/43)
same,Sustained Response,"serum HCV-RNA [2]; Study 1, Other Genotypes, ≦2 million copies/ml, 24 weeks treatment",25% (5/20)
same,Sustained Response,"serum HCV-RNA [2]; Study 1, Other Genotypes, ≦2 million copies/ml, 48 weeks treatment",50% (10/20)
same,Sustained Response,"serum HCV-RNA [2]; Study 1, Other Genotypes, 48 weeks treatment",29% (18/63)
same,Non Responder at End of Follow-up,serum HCV-RNA [2]; [4],165 (71%)
same,Relapser at End of Follow-up (relapse rate),serum HCV-RNA [2]; [4],53 (23%)
same,"Serum HCV-RNA Positive at EOT, proportion of patients",serum HCV-RNA [2]; [4],165 (71%)
same,Sustained Responders at End of Follow-up (24 weeks following EOT),serum HCV-RNA [2]; [4],13 (6%)
same,Non Responder at End of Follow-up,serum HCV-RNA [2]; [5],170 (76%)
same,Relapser at End of Follow-up (relapse rate),serum HCV-RNA [2]; [5],26 (12%)
same,"Serum HCV-RNA Negative at EOT, proportion of patients",serum HCV-RNA [2]; [5],54 (24%)
same,"Serum HCV-RNA Positive at EOT, proportion of patients",serum HCV-RNA [2]; [5],171 (76%)
same,Sustained Responders at End of Follow-up (24 weeks following EOT),serum HCV-RNA [2]; [5],29 (13%)
same,Relapser at End of Follow-up (relapse rate),"serum HCV-RNA [2]; Study 1, all treated, 48 weeks treatment, listed as Intron A plus placebo",12%
same,Percent of Sustained Virologic Responders by Time to First No Detectable HCV-RNA Levels,"serum HCV-RNA [2]; Study 1, first no-detectable HCV-RNA at Week 4, 24 weeks treatment",48% (10/21)
same,Percent of Sustained Virologic Responders by Time to First No Detectable HCV-RNA Levels,"serum HCV-RNA [2]; Study 1, first no-detectable HCV-RNA at Week 4, 48 weeks treatment",70% (14/20)
same,Percent of Sustained Virologic Responders by Time to First No Detectable HCV-RNA Levels,"serum HCV-RNA [2]; Study 1, first no-detectable HCV-RNA at Week 12, 24 weeks treatment",9% (3/32)
same,Percent of Sustained Virologic Responders by Time to First No Detectable HCV-RNA Levels,"serum HCV-RNA [2]; Study 1, first no-detectable HCV-RNA at Week 12, 48 weeks treatment",35% (11/31)
same,Percent of Sustained Virologic Responders by Time to First No Detectable HCV-RNA Levels,"serum HCV-RNA [2]; Study 1, first no-detectable HCV-RNA at Week 24, 24 weeks treatment",0% (0/22)
same,Percent of Sustained Virologic Responders by Time to First No Detectable HCV-RNA Levels,"serum HCV-RNA [2]; Study 1, first no-detectable HCV-RNA at Week 24, 48 weeks treatment",22% (4/18)
same,Sustained Response,"serum HCV-RNA [2]; Study 1, viral load >2 million copies/mL, 24 weeks treatment",4% (6/157)
same,Sustained Response,"serum HCV-RNA [2]; Study 1, viral load >2 million copies/mL, 48 weeks treatment",7% (11/162)
same,Sustained Response,"serum HCV-RNA [2]; Study 1, viral load ≦2 million copies/ml, 24 weeks treatment",9% (7/74)
same,Sustained Response,"serum HCV-RNA [2]; Study 1, viral load ≦2 million copies/ml, 48 weeks treatment",29% (18/63)
same,Proportion of patients with eradication of HCV-RNA in the serum 24 weeks following the End of Treatment,"serum HCV-RNA [2]; printed in the Study 1 results text, treatment duration not stated",16%
same,Normalization of Serum ALT At End of Treatment,"[3]; Studies 1 & 2 combined, 24 weeks treatment",24% (56)
same,Normalization of Serum ALT at End of Follow-Up,"[3]; Studies 1 + 2 combined, 24 weeks treatment",11% (25)
same,Normalization of Serum ALT at End of Follow-Up,"[3]; Studies 1 + 2 combined, 48 weeks treatment",24% (102)
same,Normalization of Serum ALT At End of Treatment,"[3]; Study 1, 24 weeks treatment",24% (56)
same,Normalization of Serum ALT at End of Follow-Up,"[3]; Study 1, 24 weeks treatment",11% (25)
same,Normalization of Serum ALT At End of Treatment,"[3]; Study 1, 48 weeks treatment",28% (82)
same,Normalization of Serum ALT at End of Follow-Up,"[3]; Study 1, 48 weeks treatment",16% (35)
same,Normalization of Serum ALT At End of Treatment,"[3]; Study 2, 48 weeks treatment",44% (123)
same,Normalization of Serum ALT at End of Follow-Up,"[3]; Study 2, 48 weeks treatment",24% (67)
same,"Overall Response Rate, ML Estimate",chronic hepatitis C,17%
same,"Overall Response Rate, Patients with Complete Biopsy Data",chronic hepatitis C,17% (32/191)
same,"Overall Response Rate, treat missing as failures",chronic hepatitis C,12% (32/278)
